The values below come from patent publication US20090172831A1, “Methods for the production of plants resistant to HPPD herbicides” (Syngenta Limited, priority 2000, published 2009).

Chains of the proteins cited; added tags and fusions are not shown.
UniProt A0ACD5V6K6, entry or part of it: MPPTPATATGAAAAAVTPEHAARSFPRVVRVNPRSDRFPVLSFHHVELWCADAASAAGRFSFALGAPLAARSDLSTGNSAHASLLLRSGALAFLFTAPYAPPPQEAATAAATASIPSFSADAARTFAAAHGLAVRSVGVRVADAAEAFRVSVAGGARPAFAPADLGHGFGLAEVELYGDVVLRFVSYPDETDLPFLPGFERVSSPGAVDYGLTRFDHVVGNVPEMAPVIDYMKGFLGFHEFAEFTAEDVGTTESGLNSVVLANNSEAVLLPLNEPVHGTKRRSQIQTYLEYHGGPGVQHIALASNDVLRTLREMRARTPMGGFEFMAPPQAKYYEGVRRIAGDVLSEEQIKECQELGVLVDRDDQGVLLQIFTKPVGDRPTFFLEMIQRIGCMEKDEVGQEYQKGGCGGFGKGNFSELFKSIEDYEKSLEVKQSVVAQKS

For assay [1], the target named is Avena HPPD (Avena sativa, UniProt A0ACD5V6K6). The experiment in a line: In vitro measurements of Avena HPPD (dissociation rate constants, Ki). The assay is classed as binding. Conditions: read-out: rate constants governing dissociation of the complexes.
In assay [2] the test system is maize HPPD. The experiment in a line: Inhibition of part purified HPPD after pre-incubation with inhibitor. The assay is classed as biochemical. As to the method: Qualitative measurements of the differences in Kd values in respect of different HPPD inhibitors are obtained by pre-incubating enzyme with inhibitor and, then, subsequently, measuring the % inhibition. For example HPPD is isolated from maize seedlings, part purified and assayed by similar methods to those described by Schulz et al 1993 (FEBS LETS. 318, 162-166) and by Secor (1994) in Plant Physiol. 106, 1429-1433. Assays are run for 30 minutes and started with addition of radiolabelled hydroxyphenylpyruvate (final concentration ˜0.1-0.2 mM) following a 20-30 min period over which inhibitor is pre-incubated with the part-purified enzyme.
The following levels of inhibition (relative to controls) are observed with the following doses of herbicide versus maize HPPD

Assay [3] has as its target T1, Arabidopsis HPPD (Arabidopsis thaliana, UniProt P93836).
T1 construct: made in house; host or cells: E. coli BL21 (DE3) codon+ RP
T1 sequence (P93836 1-445): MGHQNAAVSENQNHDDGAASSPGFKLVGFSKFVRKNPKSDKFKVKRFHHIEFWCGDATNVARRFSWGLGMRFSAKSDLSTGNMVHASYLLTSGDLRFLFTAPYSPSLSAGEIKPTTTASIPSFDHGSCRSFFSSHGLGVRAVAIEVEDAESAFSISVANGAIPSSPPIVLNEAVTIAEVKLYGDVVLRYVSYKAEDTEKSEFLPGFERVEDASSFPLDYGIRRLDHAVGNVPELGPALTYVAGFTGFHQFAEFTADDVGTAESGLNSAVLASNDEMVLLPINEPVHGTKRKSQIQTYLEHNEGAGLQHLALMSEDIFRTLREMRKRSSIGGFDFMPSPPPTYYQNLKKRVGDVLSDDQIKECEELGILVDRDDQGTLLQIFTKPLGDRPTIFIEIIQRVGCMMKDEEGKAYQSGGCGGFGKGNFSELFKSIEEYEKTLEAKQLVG
Briefly: kon from assay based measurements of the rate of activity loss. It is filed as biochemical. From the text: Firstly HPLC assays monitoring the formation of HGA at various times are run as described the preceding example 9. Even in the absence of added inhibitors, progress curves are not linear reflecting progressive inactivation of the enzyme under assay conditions. At increasing concentrations of inhibitor the curvature becomes much more marked. […]
In a more direct assay-based method for measuring kon values, test HPPD enzyme is reacted with inhibitor for a range of times and then the inhibition reaction is effectively stopped by addition of a high concentration of the (competitive) substrate HPP. […] Note that, because the initial, fast, reaction of inhibitors with HPPD which results in complete loss of activity is with only half the sites ultimately measurable by binding stoichiometry, the relevant enzyme concentration here for simulation and for calculation of rate constants is half the enzyme concentration as measured in long-term titration binding studies as described above. […]

In assay [4] the test system is dicot plants. Briefly: Herbicidal activity versus dicot plants averaged over 6 or more species. The settings on record: in vivo. The source says: Activity versus dicot plants refers here to herbicidal activity averaged over a range of 6 or more of those dicot weed and crop species usually used in screens used for compound discovery in the agrochemical community. Herbicidal activity versus dicot plants also refers here to that activity which is due to the inhibitor per se rather than due to some, potentially more herbicidal, metabolite of it which may be formed in planta or otherwise.

The test system of assay [5] is tobacco plants transformed with Avena sativa 4-HPPD gene. The experiment in a line: Tolerance of tobacco transformed with Avena sativa HPPD to herbicides. Conditions: in vivo. The source says: The structure of the resulting vector is shown schematically in FIG. 4.
The 4-HPPD plant expression cassette is then ligated in to the binary vector pBin19 restricted with Hind III and EcoRI and transformed into E. coli TOP10 cells (Invitrogen). This binary vector is then transformed into tobacco using methods well known in the art and, for example, as described elsewhere herein.

For assay [6], the system named is tobacco plants transformed to express wheat HPPD. The experiment in a line: Tolerance of tobacco transformed with wheat HPPD to herbicides. The settings on record: in vivo.

For orientation: kon means the second-order rate constant of association. Higher therefore signals fast association. For `CS(=O)(=O)c1ccc(C(=O)C2C(=O)CCCC2=O)c([N+](=O)[O-])c1` [Structure I, 2-(Nitro-4-methanesulphonylbenzoyl)-cyclohexane-1,3-dione], in assay [1], the koff was above 0.0008 s⁻¹. In addition, the “fold less active against the maize enzyme than structure IV” value in assay [2] is around 10 fold. In addition, the “inhibition (relative to controls)” value in assay [2] (1 nM) was below 17%; in assay [2] (10 nM), 44%; in assay [2] (100 nM), 51%; in assay [2] (1000 nM), above 75%. Besides, the kon in assay [3] was 250000 M⁻¹ s⁻¹.
On to `Cc1cc(C#N)ccc1C(=O)C1C(=O)C(C)(C)C(=O)C(C)(C)C1=O` [Structure VI, 2-[2-methyl-4-cyanobenzoyl]-4,4,6,6-tetramethylcyclohexane-1,3,5-trione], for which the “herbicidal activity versus dicot plants relative to mesotrione” value in assay [4] is “at least a quarter of the herbicidal activity of mesotrione”. The “resistance of the transgenic plants compared with that to mesotrione” value in assay [5] and in assay [6] was “substantially less resistant” in each case.
